Series [1] concerns P. aeruginosa strain CFS-1292. Description: Checkerboard assay (FICI) with antibiotics, P. aeruginosa. The note with it: P. aeruginosa CFS-1292, CAA + […] human serum.
For another series, the system named is human red blood cells. Description: Hemolytic activity, minimal hemolytic concentration (MHC). Format: cell-based. The following applies: human red blood cells.
Series [2] is described as follows: Stability assessment: fold change in MIC after incubation in 100% human serum. Format: in vitro ADME. The note with it: for stability (fold change in MIC) in 100% human serum: 37° C., 1 hour, and 2 hours; for Fold change in MIC: incubation in 100% human serum at 37° C.
Series [3] in a line: Solubility test (GenScript). Format: physicochemical. The following applies: water. The text has this:
All Chp peptides were synthesized by GenScript, NJ, USA with capping [N-terminal acetylation (Ac) and C-terminal amidation (NH2)] on a fee-for-service basis. GenScript assessed the purity of each peptide by high performance liquid chromatography (HPLC) and mass spectrometry (MS). GenScript also performed a solubility test for all peptides and determined the net peptide content (NPC %) using a Vario MICRO Organic Elemental Analyzer. […] All additional peptides were commercial products purchased from either GenScript or Anaspec.

The nature of series [4]: Stability assessment in rabbit serum. Format: in vitro ADME. The note with it: incubation in rabbit serum at 37° C.
The nature of series [5]: Stability assessment in 100% CAA. Format: in vitro ADME. The note with it: incubation in 100% CAA at 37° C.

Consider Gentamicin, for which the “Antibiotic MIC in checkerboard” value in series [1] (combined with Chp2-M1) was found to be 0.03125 µg/mL; in series [1] (combined with Chp2) it was 0.5 µg/mL; in series [1] (combined with Chp6-M1), 0.03125 µg/mL.
As for “MAEQYELSQEQSEQLFSETALQMHEQNELQEIMQGGIEF [Chp5]”, the “Minimal hemolytic concentration (MHC)” value with human red blood cells was above 128 µg/mL. The “stability (fold change in MIC) in 100% human serum” value in series [2] (10 minutes) is “adequately stable”. Also, the “Fold change in MIC” value in series [2] (10 minutes) was 1; in series [2] (1 hour), 2; in series [2] (2 hours) it was 2. In series [3], the solubility entry is recorded as “suspended in DMSO”.
Turning to “MKKRTKALLPYAVFIILSFQLTLLTALFMYYHYTF [Lvp2]”, in the series on human red blood cells, the “Minimal hemolytic concentration (MHC)” value is 8 µg/mL. For the same substance, the “stability (fold change in MIC) in 100% human serum” value in series [2] (10 minutes) is reported as “adequately stable”. The “Fold change in MIC” value in series [2] (10 minutes) is reported as 1; in series [2] (1 hour) it was 1; in series [2] (2 hours), 0.25. Moreover, the solubility result in series [3] was “suspended in DMSO”.
For “MSSTLCRWAVKALRCTRVYKEFIWKPLVALSYVTLYLLSSVFLSQLSYPIGSWAV [Lvp1]”, the “Fold Change in MIC (rabbit serum)” value in series [4] (10 min.), in series [4] (1 hour) and in series [4] (2 hours) was 1 each time. Moreover, the solubility entry in series [3] is given as “suspended in DMSO”. Also, the “Fold change in MIC (100% CAA)” value is listed as 1 in series [5] (10 min.), 0.5 in series [5] (1 hour) and 0.5 in series [5] (2 hours).

The values are drawn from patent US20220401514A1, “ANTIMICROBIAL, BACTERIOPHAGE-DERIVED POLYPEPTIDES AND THEIR USE AGAINST GRAM-NEGATIVE AND ACID-FAST BACTERIA” (CONTRAFECT CORPORATION, priority 2019, published 2022).
